Source: PubChem BioAssay AID828 (The Scripps Research Institute Molecular Screening Center, 2007)
This is a selection; strong and weak results do not stand in their true shares. Calls of active or inactive are those of the source. Rule as the data show it: active = inhibition above about 27%; inactive = the rest.

Sequences of proteins named here, by UniProt entry; tags and fusion partners are left off.
UniProt O43603, whole entry: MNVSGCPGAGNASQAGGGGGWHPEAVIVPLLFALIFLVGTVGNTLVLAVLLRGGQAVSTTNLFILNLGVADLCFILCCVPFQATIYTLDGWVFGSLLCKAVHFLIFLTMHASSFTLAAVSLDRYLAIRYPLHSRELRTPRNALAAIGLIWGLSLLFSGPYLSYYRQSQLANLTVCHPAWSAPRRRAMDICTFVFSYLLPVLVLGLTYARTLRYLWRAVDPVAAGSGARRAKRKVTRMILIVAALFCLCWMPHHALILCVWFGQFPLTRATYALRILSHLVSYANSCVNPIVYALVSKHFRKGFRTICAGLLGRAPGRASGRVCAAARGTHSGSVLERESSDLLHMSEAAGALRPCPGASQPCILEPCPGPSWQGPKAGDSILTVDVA

biological target: Galanin receptor type 2 (Homo sapiens) (UniProt O43603); assay: blockers of human galanin receptor 2 – cell-based, primary screen (AID 828); conditions: GALR2-expressing cells, antagonist mode; at 4 µM; active compounds read high;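 also: cells stimulated with galanin 1-16 at roughly its EC80; 0% = agonist challenge control and 100% = basal control without agonist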

Row | Compound | inhibition
1 | O=C(NCC1(N2CCOCC2)CCCCC1)c1cc2ccccc2o1 | inactive: -6.42%
2 | O=C(OC1CN2CCC1CC2)C1c2ccccc2Oc2ccccc21 (stereo not drawn) | inactive: -6.84%
3 | COc1ccc(NC2CCN(CCc3ccccc3)CC2)c(OC)c1 | inactive: -4.03%
4 | N#CC1(Nc2ccccc2)CCN(CCc2ccccc2)CC1 | inactive: 6.66%
5 | O=C(NCC1(N2CCOCC2)CCCCC1)c1cc(=O)[nH]c2ccccc12 | inactive: -2.62%
6 | CN1CCN(CCOC(=O)C(O)(c2ccccc2)c2ccccc2)CC1 | inactive: -1%
7 | CN1CCC(Nc2cccc(F)c2)CC1 | inactive: 2.89%
8 | N/C(=N\O)c1c(N)no[n+]1[O-] | inactive: -5.55%
9 | O=C(OC1CN2CCC1CC2)C1c2ccccc2C=Cc2ccccc21 (stereo not drawn) | inactive: -2.73%
10 | c1ccc(CN2CCC(Nc3ccccc3)CC2)cc1 | inactive: 14.3%
11 | CCN1CCC(Nc2cccc(F)c2)CC1 | inactive: -2.99%
12 | CCOc1ncccc1C(=O)NCC1(N2CCOCC2)CCCCC1 | inactive: 6.55%
13 | CCC(CO)(C(=O)OC1CN2CCC1CC2)c1ccccc1 (stereo not drawn) | inactive: -1.47%
